Data taken from US20050175695A1, “Carvedilol free base, salts, anhydrous forms or solvates thereof, corresponding pharmaceutical compositions, controlled release formulations, and treatment or delivery methods” (priority 2003, published 2005).

Tests used:
[1] = Aqueous solubility at 25° C. of carvedilol free base and three salts (Table 13); type: physicochemical; details: for pH of the solution: 25° C.
[2] = Solubility in water of carvedilol free base and monocitrate salt over time (Table 11); type: physicochemical; details: 25° C.

With “Carvedilol Monocitrate Monohydrate [Carvedilol Mono-Citrate Salt]” the “aqueous solubility compared with free base” value [1] was “much better aqueous solubility than the free base”, the “pH of the solution” value ([1]; 1 hr) was 3.3 and the “pH of the solution” value ([1]; 4 hr) was 3.2. The “pH of the solution” value ([1]; 24 hr) was 3.2, the “pH of the filtered solution” value ([2]; 1 hr) was 3.5 and the “pH of the filtered solution” value ([2]; 4 hr) was 3.4. The “pH of the filtered solution” value ([2]; 24 hr) was 3.0.
